# Permeability data for macrocyclic peptides

Source: CycPeptMPDB (Li et al. 2023), which took these values from Townsend et al. 2020, doi:10.26434/chemrxiv.13335941.v1.

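Conditions beyond the assay type are not listed; see the original paper. The list need not hold all peptides of the study. Entries at the database's floor value (log10 P of -10) are not listed.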

PAMPA is the parallel artificial membrane permeability assay, which has no cells and reads passive diffusion.
Permeability is in 10^-6 cm/s, converted from the database's log10 values; higher is more permeable.

{"smiles": "CCCN1CC(=O)N(C)[C@@H](CC(C)C)C(=O)N(C)[C@H](CC(C)C)C(=O)N2CCC[C@H]2C(=O)N(C)[C@H](CC(C)C)C(=O)N[C@@H](Cc2ccccc2)C(=O)N2CCC[C@H]2C1=O", "PAMPA (10^-6 cm/s)": "13"}
{"smiles": "CC(C)C[C@@H]1NC(=O)[C@@H](C)N(C)C(=O)[C@H]2CCCN2C(=O)[C@H](Cc2ccccc2)NC(=O)[C@@H](CC(C)C)N(C)C(=O)[C@@H]2CCCN2C(=O)[C@@H](CC(C)C)N(C)C1=O", "PAMPA (10^-6 cm/s)": "7.6"}
{"smiles": "CC(C)C[C@H]1NC(=O)[C@@H](C)NC(=O)[C@H](Cc2ccccc2)NC(=O)CN(Cc2ccccc2)C(=O)[C@H]2CCCN2C(=O)CN(Cc2ccccc2)C1=O", "PAMPA (10^-6 cm/s)": "0.71"}
{"smiles": "CCCN1CC(=O)N(C)[C@H](CC(C)C)C(=O)N[C@@H](CC(C)C)C(=O)N2CCC[C@H]2C(=O)N[C@H](CC(C)C)C(=O)N[C@@H](Cc2ccccc2)C1=O", "PAMPA (10^-6 cm/s)": "12"}
{"smiles": "CCCN1CC(=O)N[C@@H](CC(C)C)C(=O)N[C@H](CC(C)C)C(=O)N2CCC[C@H]2C(=O)N(C)[C@H](CC(C)C)C(=O)N[C@@H](Cc2ccccc2)C1=O", "PAMPA (10^-6 cm/s)": "12"}
{"smiles": "CCCN1CC(=O)N[C@H](CC(C)C)C(=O)N(C)[C@H](CC(C)C)C(=O)N2CCC[C@@H]2C(=O)N[C@H](CC(C)C)C(=O)N[C@@H](Cc2ccccc2)C(=O)N2CCC[C@@H]2C1=O", "PAMPA (10^-6 cm/s)": "4.6"}
{"smiles": "CC(C)C[C@H]1NC(=O)[C@H](C)NC(=O)[C@H]2CCCN2C(=O)[C@H](Cc2ccccc2)NC(=O)[C@@H](CC(C)C)NC(=O)[C@@H]2CCCN2C(=O)[C@@H](CC(C)C)NC1=O", "PAMPA (10^-6 cm/s)": "0.35"}
{"smiles": "CC(C)C[C@@H]1C(=O)N2CCC[C@H]2C(=O)N[C@H](CC(C)C)C(=O)N[C@@H](Cc2ccccc2)C(=O)N2CCC[C@H]2C(=O)N(C)[C@H](C)C(=O)N[C@H](CC(C)C)C(=O)N1C", "PAMPA (10^-6 cm/s)": "2.1"}
{"smiles": "CC(C)C[C@H]1NC(=O)[C@H](C)NC(=O)[C@H](Cc2ccccc2)NC(=O)[C@H](CC(C)C)N(C)C(=O)[C@@H]2CCCN2C(=O)CN(Cc2ccccc2)C1=O", "PAMPA (10^-6 cm/s)": "1.7"}
{"smiles": "CC(C)C[C@@H]1C(=O)N2CCC[C@H]2C(=O)N[C@H](CC(C)C)C(=O)N[C@@H](Cc2ccccc2)C(=O)N2CCC[C@@H]2C(=O)N(C)[C@H](C)C(=O)N(C)[C@@H](CC(C)C)C(=O)N1C", "PAMPA (10^-6 cm/s)": "1.6"}
{"smiles": "CC(C)C[C@@H]1C(=O)N[C@H](CC(C)C)C(=O)N2CCC[C@H]2C(=O)N(C)[C@@H](CC(C)C)C(=O)N[C@@H](Cc2ccccc2)C(=O)N2CCC[C@@H]2C(=O)N(C)[C@H](C)C(=O)N1C", "PAMPA (10^-6 cm/s)": "13"}
{"smiles": "CC(C)C[C@@H]1NC(=O)[C@H](C)NC(=O)[C@H](Cc2ccccc2)NC(=O)[C@@H](CC(C)C)N(C)C(=O)[C@H]2CCCN2C(=O)C[C@H](Cc2ccccc2)NC1=O", "PAMPA (10^-6 cm/s)": "1"}
{"smiles": "CC(C)C[C@@H]1NC(=O)C[C@H](Cc2ccccc2)NC(=O)[C@H]2CCCN2C(=O)[C@H](Cc2ccccc2)NC(=O)[C@H](CC(C)C)N(C)C(=O)[C@@H]2CCCN2C(=O)[C@H](CC(C)C)N(C)C1=O", "PAMPA (10^-6 cm/s)": "5.6"}
{"smiles": "CC(C)C[C@@H]1NC(=O)[C@H](C)N(C)C(=O)[C@H](Cc2ccccc2)NC(=O)[C@H](CC(C)C)N(C)C(=O)[C@@H]2CCCN2C(=O)[C@H](CC(C)C)NC1=O", "PAMPA (10^-6 cm/s)": "1.4"}
{"smiles": "CC(C)C[C@@H]1NC(=O)[C@@H](C)NC(=O)[C@@H]2CCCN2C(=O)[C@H](Cc2ccccc2)NC(=O)[C@H](CC(C)C)N(C)C(=O)[C@@H]2CCCN2C(=O)[C@H](CC(C)C)N(C)C1=O", "PAMPA (10^-6 cm/s)": "1.5"}
{"smiles": "CC(C)C[C@@H]1NC(=O)CN(Cc2ccccc2)C(=O)[C@@H](C)N(C)C(=O)[C@H]2CCCN2C(=O)[C@H](Cc2ccccc2)NC(=O)[C@@H](CC(C)C)N(C)C(=O)[C@H]2CCCN2C1=O", "PAMPA (10^-6 cm/s)": "2"}
{"smiles": "CC(C)C[C@H]1NC(=O)[C@@H]2CCCN2C(=O)C[C@H](Cc2ccccc2)NC(=O)CN(Cc2ccccc2)C(=O)C[C@H](Cc2ccccc2)NC(=O)[C@H]2CCCN2C(=O)[C@H](Cc2ccccc2)NC1=O", "PAMPA (10^-6 cm/s)": "1.2"}
{"smiles": "CCCN1CC(=O)N[C@@H](CC(C)C)C(=O)N(C)[C@H](CC(C)C)C(=O)N2CCC[C@@H]2C(=O)N[C@H](CC(C)C)C(=O)N[C@@H](Cc2ccccc2)C1=O", "PAMPA (10^-6 cm/s)": "6.2"}

Excerpt, the final 2 entries:

{"smiles": "CC(C)C[C@H]1NC(=O)[C@@H]2CCCN2C(=O)C[C@H](Cc2ccccc2)NC(=O)CN(Cc2ccccc2)C(=O)C[C@H](Cc2ccccc2)NC(=O)[C@H]2CCCN2C(=O)[C@H](Cc2ccccc2)NC1=O", "PAMPA (10^-6 cm/s)": "1.2"}
{"smiles": "CCCN1CC(=O)N[C@@H](CC(C)C)C(=O)N(C)[C@H](CC(C)C)C(=O)N2CCC[C@@H]2C(=O)N[C@H](CC(C)C)C(=O)N[C@@H](Cc2ccccc2)C1=O", "PAMPA (10^-6 cm/s)": "6.2"}